Values of other authors, collected in patent publication US20230382949A1, “LINEAR APELIN RECEPTOR AGONISTS” (HEPTARES THERAPEUTICS LIMITED, priority 2020, published 2023).

Details: cited from earlier work

Apelin [reference compound]
half-life in the blood circulation: around one
